Measurements taken from publication PMC11308778, “Real-Time Measurement of a Weak Interaction of a Transcription Factor Motif with a Protein Hub at Single-Molecule Precision” (ACS Nano, 2024).

Target: WD repeat-containing protein 5, N-terminal truncation (WDR5^23–334) (UniProt P61964 23-334)
Test: fluorescence polarisation; steady-state FP anisotropy; 50 nM FITC-labeled peptide, serially diluted WDR5; 150 mM NaCl, 20 mM Tris-HCl, 1 mM TCEP, 0.005% tween 20, pH 7.5, 1 h at room temperature; four-parameter logistic fit
Details: both partners purified

Kd: 5 ± 0.9 µM
Binder: QEDEEEIDVVSVE (fluorescein isothiocyanate (FITC) label, position not stated) [fluorescein isothiocyanate (FITC)-labeled MYCWBM peptide]
